Measured values from ChEMBL document CHEMBL3758122, “Multitarget opioid ligands in pain relief: New players in an old game” (Eur J Med Chem, 2016).

Chains of the proteins cited; added tags and fusions are not shown.
UniProt P35372, whole entry: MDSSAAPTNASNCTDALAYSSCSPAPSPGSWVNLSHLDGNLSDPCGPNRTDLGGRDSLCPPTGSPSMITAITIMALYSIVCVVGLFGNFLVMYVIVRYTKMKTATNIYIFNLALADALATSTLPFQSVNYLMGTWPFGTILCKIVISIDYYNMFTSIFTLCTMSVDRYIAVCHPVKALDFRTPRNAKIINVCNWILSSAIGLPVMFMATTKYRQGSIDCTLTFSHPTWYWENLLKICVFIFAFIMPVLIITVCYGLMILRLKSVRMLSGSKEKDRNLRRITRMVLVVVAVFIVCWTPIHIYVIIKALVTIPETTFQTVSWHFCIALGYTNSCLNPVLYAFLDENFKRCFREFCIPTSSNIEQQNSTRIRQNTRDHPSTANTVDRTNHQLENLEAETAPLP
UniProt P33535, whole entry: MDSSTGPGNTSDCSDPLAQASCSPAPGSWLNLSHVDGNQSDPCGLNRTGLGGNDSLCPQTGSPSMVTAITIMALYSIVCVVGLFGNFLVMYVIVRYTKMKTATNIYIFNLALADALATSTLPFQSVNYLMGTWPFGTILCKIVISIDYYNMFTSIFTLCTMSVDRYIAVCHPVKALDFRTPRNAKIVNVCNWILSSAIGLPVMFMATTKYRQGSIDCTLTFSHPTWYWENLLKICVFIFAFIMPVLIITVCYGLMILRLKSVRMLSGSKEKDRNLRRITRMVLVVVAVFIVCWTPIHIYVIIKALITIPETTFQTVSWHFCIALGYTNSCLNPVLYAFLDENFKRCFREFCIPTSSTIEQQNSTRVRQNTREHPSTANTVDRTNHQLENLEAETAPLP

Tests used:
Mu-type opioid receptor [1] = target: Mu-type opioid receptor (Homo sapiens, UniProt P35372); assay: Binding affinity at mu opioid receptor (unknown origin)
Mu-type opioid receptor [2] = target: Mu-type opioid receptor (Rattus norvegicus, UniProt P33535); assay: Displacement of [3H]DPDPE from mu opioid receptor in albino Sprague-Dawley rat after 90 mins by liquid scintillation

| SMILES | IC50 (Mu-type opioid receptor [1]) [nM] | Ki (Mu-type opioid receptor [2]) [nM] |
| --- | --- | --- |
| C[C@@H](NC(=O)[C@@H](N)Cc1ccc(O)cc1)C(=O)N[C@@H](Cc1ccccc1)C(=O)NCC(=O)N[C@@H](Cc1ccc(O)cc1)C(=O)N1CCC[C@H]1C(=O)N[C@@H](CO)C(N)=O | 36.7 | – |
| C=CCN1C[C@H](C)N([C@@H](c2cccc(O)c2)c2cccc(C(=O)N(C)c3cccc(F)c3)c2)C[C@H]1C | – | 0.18 |
